# PMC7936662 (Thrombosis research, 2020)
# Target: human α-thrombin (Homo sapiens, UniProt P00734)
# Assay: Fibrinogen cleavage by thrombin in human platelet-poor plasma
# Assay type: biochemical
smiles,measurement,value
"CC1CNc2c(cccc2S(=O)(=O)N[C@@H](CCCNC(=N)N)C(=O)N2CC[C@@H](C)C[C@@H]2C(=O)O)C1 (stereo partly shown) [Argatroban, argatroban]",IC50,400 ± 200 nM
